This is a selection; strong and weak results do not stand in their true shares. Calls of active or inactive are those of the source. Cut-off read from the data, not from the text of the source: active = inhibition above about 22% (passing the limit was not always enough); inactive = the rest.

By UniProt entry, the sequences of proteins in these tests, tags left out.
UniProt P35372, whole entry, looked up: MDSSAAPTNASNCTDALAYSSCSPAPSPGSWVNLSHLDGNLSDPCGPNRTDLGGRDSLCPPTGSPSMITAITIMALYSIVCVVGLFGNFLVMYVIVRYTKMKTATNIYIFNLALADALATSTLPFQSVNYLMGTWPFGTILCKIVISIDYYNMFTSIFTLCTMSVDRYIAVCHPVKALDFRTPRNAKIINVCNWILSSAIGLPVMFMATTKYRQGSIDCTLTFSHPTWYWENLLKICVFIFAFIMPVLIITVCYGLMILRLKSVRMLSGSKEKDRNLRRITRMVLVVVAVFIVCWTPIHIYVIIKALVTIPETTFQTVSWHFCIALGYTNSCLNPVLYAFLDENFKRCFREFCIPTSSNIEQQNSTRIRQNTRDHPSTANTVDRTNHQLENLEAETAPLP
UniProt P41143, whole entry, looked up: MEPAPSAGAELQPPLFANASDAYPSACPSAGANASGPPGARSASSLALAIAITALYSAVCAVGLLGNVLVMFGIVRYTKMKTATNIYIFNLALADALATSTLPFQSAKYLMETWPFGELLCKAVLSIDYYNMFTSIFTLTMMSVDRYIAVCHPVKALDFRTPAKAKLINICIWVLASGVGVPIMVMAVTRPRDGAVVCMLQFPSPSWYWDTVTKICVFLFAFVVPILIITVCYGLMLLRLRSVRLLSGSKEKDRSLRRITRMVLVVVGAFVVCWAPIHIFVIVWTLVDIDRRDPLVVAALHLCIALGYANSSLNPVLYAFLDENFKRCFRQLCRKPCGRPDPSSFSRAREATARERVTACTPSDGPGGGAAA

In this assay the target is Mu-type opioid receptor (Homo sapiens) + Delta-type opioid receptor (Homo sapiens) (UniProt P35372+P41143). The experiment in a line: OPRM1-OPRD1 heterodimer inverse agonism – cell-based, luminescence, primary screen (AID 504357).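 Note: 0% = cells with DMSO and 100% = wells without cells with DMSO.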 Conditions: cell-based MOR-DOR heterodimer luminescence, at 9.3 µM, stronger effect = higher value.
By inhibition is commonly meant the drop in the measured response relative to a control, in per cent. For `CC(Cc1ccc(O)cc1)NCC(O)c1cc(O)cc(O)c1` (stereo unspecified), the inhibition was inactive: 10.9%.

The values above are taken from PubChem BioAssay AID504357 (The Scripps Research Institute Molecular Screening Center, 2011).
